Like-named read-outs stand apart in the source and are kept apart here.

Among the data in patent US9187397B2 (STC.UNM, priority 2004, dated 2015) are IC50 values, retold here.

For the experiment, the system named is NF-κB. As to the kind of experiment: NF-κB luciferase reporter cellular assay (293T/NF-κB-luc, TNFα-stimulated). The class given is cell-based. To be noted: Homo sapiens, HEK-293T, inhibition of TNFα-induced NF-κB activation. As for the experimental part: The cell line is derived from human 293T embryonic kidney cells expressing the large T antigen containing a chromosomal integration of a luciferase reporter construct regulated by 6 copies of the NF-κB response element (Panomics, Inc.). This stable clonal cell line is obtained by co-transfection of pNF-κB-luc and pTK-hyg containing plasmids followed by the addition of hygromycin (200 μg/ml) to maintain cell selection.
The cell line was grown in a humidified atmosphere at 37° C. in 5% CO2/95% air and maintained in Dulbecco's Modified Eagle's Medium (DMEM-high glucose containing 4 mM glutamine) containing fetal bovine serum (FBS, 10%), sodium pyruvate (1 mM), penicillin (100 units/ml), streptomycin (100 μg/ml) and hygromycin (100 μg/m) to maintain cell selection (Gibco/Invitrogen).
The 293T/NF-κB-luc cells were re-plated 24 hr prior to treatment, into 24-well cell culture plates in media without hygromycin, to prevent it from interfering with the assay. The cells were then allowed to grow and attach, to the wells, for 24 hr in a humidified atmosphere at 37° C. in 5% CO2/95% air. […] The cells then were placed again in a humidified atmosphere at 37° C. in 5% CO2/95% air for 7 hr. Plate wells were gently washed with PBS, pH 7.4, and lysed with passive lysis buffer (1×, 100 μl, Promega). The subsequent chemiluminescent lysates were analyzed with the Luciferase Assay System (Promega) utilizing a TD-20/20 luminometer. The relative light units (photons) were determined by the addition of firefly luciferase substrate (75 μl) to cell lysate (10 μl). The light units were then normalized to the amount of protein in the well (mg/ml) with BCA™ Protein Assay Kit (Pierce) and standardized to percent of control (TNFα).
This assay utilized a commercially available cell line (Panomics 293T-luc cellular assay) developed for screening inhibitors of NF-κB. This cell line is stably transfected with a luciferase reporter controlled by an NF-κB dependent promoter. The cell is stimulated with tumor necrosis factor alpha (TNFα) which activates NF-κB. NF-κB then binds to one of six promoter regions on the cell's DNA leading to the production of a luciferase enzyme. Luciferin is added to the cell lysates and the luciferase enzyme catalyzes a cleavage of luciferin leading to the emission of light.
This cell line was developed by Panomics for screening potential inhibitors of NF-κB. Cells are stimulated with TNF-α to express luciferase, whose activity is monitored in a chemiluminometer.
An NF-κB reporter stable cell line from human 293T embryonic kidney cells (293T/NFκB-luc) (Panomics) was grown in a humidified atmosphere at 37° C. in 5% CO2/95% air. The cells were maintained in Dulbecco's Modified Eagle's Medium (DMEM—high glucose containing 4 mM glutamine) supplemented with 10% fetal bovine serum (FBS), 1 mM sodium pyruvate, 100 units/ml penicillin, 100 μg/m streptomycin and 100 μg/ml hygromycin (Gibco/Invitrogen, Carlsbad, Calif.)) to maintain cell selection. One day prior to treatment, the 293T/NFκB-luc cells were plated into 24-well cell culture plates (Costar) at approximately 70% confluency in the above media without hygromycin. The following day cells were fed fresh media 1 hour prior to treatment. […] The cells were placed again in a humidified atmosphere at 37° C. in 5% CO2/95% air for 7 hours. […] The subsequent lysates were analyzed with the Luciferase Assay System (Promega) utilizing a TD-20/20 luminometer (Turner Designs). […]
(In a reporter assay the amount or activity of a reporter protein is the signal.)

The mark [1] stands for this setting: 293T/NF-κB-luc cells, Table 5, read-out: IC50.

By IC50 is commonly meant the concentration that gives 50% inhibition. Take `O=C(/C=C/c1ccccc1O)/C=C/c1ccccc1O` [20q]: the IC50 under setting [1] amounted to 4.2 µM and the IC50 (Table 10, read-out: NF-κB IC50) was determined as 4.2 µM. `COc1cc(/C=C/C(=O)/C=C(O)/C=C/c2ccc(O)c(OC)c2)ccc1O` [analog 3a, 1,7-Bis(4-hydroxy-3-methoxyphenyl)-1,6-heptadiene-3,5-dione]: the half-inhibitory concentration (IC50) under setting [1] is 8.2 µM.

Take `O=C(/C=C/c1ccncc1)/C=C/c1ccncc1` [compound 29]: the IC50 under setting [1] came to 3.5 µM and the IC50 (Table 10, read-out: NF-κB IC50) came out at 3.5 µM.
